# Assay results as given in patent publication US12565673B2, “Methods for the design of nonallosteric sirtuin activating compounds” (Chakrabarti Advanced Technology, LLC, priority 2020, dated 2026).
# Experiments:
# hSirt3^102-399 [1] = target: T1, hSirt3^102-399 (Homo sapiens, UniProt Q9NTG7); experiment: hSirt3 ligand binding assay by microscale thermophoresis (MST); set-up: hSirt3^102-399 was expressed in E. coli Arctic Express (DE3) cells; His-tag (only implied by the HisTrap / imidazole purification); made in house; host or cells: E. coli Arctic Express (DE3)
# T1 sequence (Q9NTG7 102-399): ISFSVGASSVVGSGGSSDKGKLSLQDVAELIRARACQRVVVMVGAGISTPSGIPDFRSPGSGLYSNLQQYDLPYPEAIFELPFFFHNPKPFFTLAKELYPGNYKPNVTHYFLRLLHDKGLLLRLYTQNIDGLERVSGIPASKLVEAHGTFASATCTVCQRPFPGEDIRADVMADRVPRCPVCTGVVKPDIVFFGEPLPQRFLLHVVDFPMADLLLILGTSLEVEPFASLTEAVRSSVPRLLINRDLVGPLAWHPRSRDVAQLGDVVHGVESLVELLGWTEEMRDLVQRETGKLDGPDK
# Method: The binding affinities of ligands to complexes in the catalytic mechanism of SIRT3/MnSOD peptide substrate were measured using microscale thermophoresis (MST; FIG. 9, FIG. 10). In order to carry out binding affinity measurements on the reactive complex of enzyme, acylated peptide substrate and NAD^+, the catalytically inert molecule carba-NAD^+ was synthesized and used this NAD^+ analog for those MST studies.
# The latter measurements in the presence of deacylated peptide were made in order to determine whether product inhibition plays any role in the observed kinetics.
# DY-647P1-NHS-Ester conjugated hSirt3^102-399 was used for MST studies. Briefly, the protein conjugation was done in 1×PBS pH 7.4, 0.05% Pluronic F-127, and the labeled protein was buffer exchanged into 47 mM Tris-HCl pH 8.0, 129 mM NaCl, 2.5 mM KCl, 0.94 mM MgCl2, 5% DMSO, 0.05% Tween-20. We used 2 nM labeled hSirt3 and titrated with varying concentrations of the modulators in the absence and presence of various concentrations of substrates, products and intermediates. The thermophoresis was measured (excitation/emission 653/672 nm) using a Monolith NT. 115 Pico (NanoTemper Technologies) at 25° C. Dissociation constants (Kd) were determined using GraFit7 (Erithacus Software) by nonlinear fitting.
# hSirt3^102-399 [2] = target: T1, hSirt3^102-399
# SIRT3 = target: T2, SIRT3 (Homo sapiens, UniProt Q9NTG7); details: p53-AMC substrate
# T2 sequence (Q9NTG7 102-399): T1 sequence (Q9NTG7 102-399)
# [3] = [E]0/[NAD^+]0=0.3, unsaturated HKL
smiles,measurement,setting,value
"C=CCc1ccc(O)c(-c2ccc(O)c(CC=C)c2)c1 [HKL, 5, 3′-Diallyl-2, 4′-dihydroxybiphenyl]",change of HKL binding affinity in the presence of NAM,hSirt3^102-399 [1]; Sirt3.Ac-MnSOD complex (FIG. 9D),increase
same,effect of HKL on NAD^+ binding affinity (carba-NAD^+),"hSirt3^102-399 [1]; Sirt3.Ac-p53-AMC complex, 6.25 μM HKL (FIG. 11B)",decrease
same,change of HKL binding affinity in the presence of O-acetylated ADP ribose coproduct,hSirt3^102-399 [1]; product complex (FIG. 10A),increase
same,"effect on SIRT3 activity, non-steady state","hSirt3^102-399 [2]; 10 uM HKL, MnSOD substrate, [NAD^+]=50 uM, 1.5 min (FIG. 6B), p<=0.001",activation
same,"effect on SIRT3 activity, pre-steady state phase","hSirt3^102-399 [2]; saturating HKL, MnSOD peptide substrate",pre-steady state activation
same,"effect on SIRT3 activity, non-steady state condition",SIRT3; [3],activation
same,"effect on SIRT3 activity, steady state condition",SIRT3; [3],inhibition effect
same,decrease in steady state catalytic efficiency,"SIRT3; saturating HKL, absence of NAM",3-4 fold
